Measured values as given in US4396607A, “Muramyl peptide derivatives and pharmaceutical compositions” (priority 1978, dated 1983).

Tested on: Limulus amoebocyte lysate
Test: Limulus test (endotoxic type activity)
Conditions: gel formation after 20 minutes at 37° C.
Experimental: For this purpose, 0.1 ml of the Limulus amoebocyte lysate preparation (marketed by the MALLINCKRODT Company, at St. LOUIS, U.S.A.) was mixed with an equal volume of the tested product at various concentrations in solution in apyrogenic distilled water. The vessels used were also made apyrogenic by dry heating in the oven, at 180° C., for 2 hours.
After incubating the mixture for 20 minutes at 37° C. in tubes, the formation of gel characteristics of the presence of endotoxin was estimated.

N-acetyl-muramyl-L-alanyl-D-isoglutaminyl-L-alanylglyceryl-mycolate [MDP--L--Ala--glyceryl--mycolate]
Limulus test result (concentration of the tested product): 100 µg/mL
